# From PubChem BioAssay AID1508640 (National Center for Advancing Translational Sciences (NCATS), 2021)
# Sequences of proteins named here, by UniProt entry; tags and fusion partners are left off.
# UniProt P08659, whole entry: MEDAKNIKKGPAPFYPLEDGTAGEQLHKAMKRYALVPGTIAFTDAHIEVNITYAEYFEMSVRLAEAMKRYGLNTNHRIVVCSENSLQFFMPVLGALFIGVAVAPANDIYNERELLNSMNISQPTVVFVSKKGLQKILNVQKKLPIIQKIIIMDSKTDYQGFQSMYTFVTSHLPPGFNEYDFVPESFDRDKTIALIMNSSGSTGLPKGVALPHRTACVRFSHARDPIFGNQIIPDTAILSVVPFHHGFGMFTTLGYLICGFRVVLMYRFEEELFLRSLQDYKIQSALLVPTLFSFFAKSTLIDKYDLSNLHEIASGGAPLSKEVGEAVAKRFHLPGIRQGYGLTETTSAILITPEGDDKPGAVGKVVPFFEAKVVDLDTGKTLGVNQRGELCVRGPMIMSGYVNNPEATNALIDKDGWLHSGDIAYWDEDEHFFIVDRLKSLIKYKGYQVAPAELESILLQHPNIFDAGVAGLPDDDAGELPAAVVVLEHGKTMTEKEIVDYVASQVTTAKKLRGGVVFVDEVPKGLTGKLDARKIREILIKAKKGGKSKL
# This is a selection; strong and weak results do not stand in their true shares. Records with an inconclusive call do not appear. Active and inactive are the calls of the source. Calls come from the whole dose curve; as a rule, active = well fitted inhibition curve with a large enough effect; inconclusive = small, poorly fitted or top-dose-only effect, or another doubt; inactive = no such curve, though single readings can be large or run the other way.
# Molecular target: Luciferin 4-monooxygenase (Photinus pyralis) (UniProt P08659)
# Assay: Biochemical FLuc counterscreen for small molecule modulators of PMP22 gene expression; note: % of control where 0% means no effect
# Settings: purified P. pyralis FLuc, luminescence, 10 min; at 57.5 µM (top of the series)
# From the text: Assay Provider: Jim Inglese Ph.D. National Center for Advancing Translational Science, National Institutes of Health, Rockville, MD CMT is a heterogeneous group of neurological disorders that affect approximately 1 in 2,500 people. In particular, the most common form of CMT, CMT1A is genetically linked to the duplication of the PMP22 gene which leads to Schwann cell overexpression, thus manifesting itself as a typical case of dose-sensitive diseases. […] We can further discriminate the effect of all transcriptionally active molecules on PMP22 translation or stability with an assay that incorporates a short NLuc peptide (HiBiT) at the C-terminus of expressed PMP22 (S16(f8) PMP22-HiBiT) allowing alpha complementation and luminescence detection of membrane-associated PMP22 protein. […] Miniaturization of these assays to 1536-well plate format for quantitative high throughput screening (qHTS) yielded rich data sets immediately from the qHTS assay (S16(c9) Pmp22-F2sN), when compared with data from a cell viability assay (Cell TiterGlo) to identify compounds that decreased the output signals through cellular toxicity to streamline the selection process of actives for subsequent characterization using the HiBiT assay (S16(f8) PMP22-HiBiT). […]
compound,measurement,value
CC(C)(C)c1ccc(C(=O)NCC2(N3CCOCC3)CCCCC2)cc1,"activity, negative = inhibition",inactive: 0.316%
